Laboratory results reported in US7307101B2, “Use of 20-HETE synthesizing enzyme inhibitors as therapy for cerebral vascular disease” (MCW Research Foundation, Inc., priority 2000, dated 2007).

Sequences of proteins named here, by UniProt entry; tags and fusion partners are left off.
UniProt P33261, whole entry: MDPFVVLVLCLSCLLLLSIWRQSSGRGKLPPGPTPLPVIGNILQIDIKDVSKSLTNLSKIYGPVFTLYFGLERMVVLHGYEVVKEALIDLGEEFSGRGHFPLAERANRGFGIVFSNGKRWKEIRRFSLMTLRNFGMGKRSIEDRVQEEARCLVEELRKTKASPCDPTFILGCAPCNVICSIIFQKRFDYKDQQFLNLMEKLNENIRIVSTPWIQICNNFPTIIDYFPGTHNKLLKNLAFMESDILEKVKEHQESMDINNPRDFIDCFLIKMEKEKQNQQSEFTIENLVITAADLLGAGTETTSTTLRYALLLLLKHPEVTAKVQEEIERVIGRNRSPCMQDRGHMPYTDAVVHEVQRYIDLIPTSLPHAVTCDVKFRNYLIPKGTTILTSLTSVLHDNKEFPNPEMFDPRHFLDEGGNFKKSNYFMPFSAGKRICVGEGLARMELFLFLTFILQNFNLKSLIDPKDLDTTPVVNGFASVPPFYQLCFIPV

Molecular target: CYP2C19 (Homo sapiens, UniProt P33261)
Assay: CYP2C19 activity in human liver microsomes
Conditions: positive control, concentration not given

In the case of `N[C@@H]1C[C@H]1c1ccccc1` (racemic) [Tranylcypromine], the “% Inhibition (duplicate) CYP2C19” value was 64%.
